# Patent US11896675B2, “Site-specific antibody conjugation and antibody-drug conjugate as specific embodiment thereof” (AbTis Co., Ltd., priority 2019, dated 2024)
# System: NCl-N87 gastric cancer cell line xenograft
# Experiment: Anti-cancer efficacy test in NCl-N87 xenograft model
# Assay type: in vivo, BALB/c nude mice
# Details: 5 mg/kg intravenous, once/3 day three times, observation period 5 weeks
# Text: A target antigen-overexpressing NCl-N87 gastric cancer cell line was subcutaneously transplanted into mice to establish a xenograft model, and the mice were divided into 4 groups to perform an anti-cancer efficacy test on the materials administered. Because the BALB/c nude mice used in this test were deficient in T cells, cancer cells were easily transplanted into the BALB/c nude mice. Therefore, the BALB/c nude mice were used as a model suitable for an anti-cancer efficacy test using a rodent. One vial of a human tumor cell line (NCl-N87 cell line) was put into a cell culture flask containing an RPMI1640 medium (Gibco, 22400-089) supplemented with heat-inactivated 10% fetal bovine serum (FBS; Gibco, 10082-742), and cultured at 37° C. in a 5% CO2 incubator. The cell culture medium was washed with PBS, and diluted 10-fold with 2.5% trypsin-EDTA (Gibco, 15090). Thereafter, the diluted cell culture medium was added to separate the cells, and the cells were centrifuged (at 1,000 rpm for 5 minutes) to discard a supernatant. […] Group 5: AbClick®Pro(VC, DM1); and Group 6: AbClick®Pro(VC, MMAE) The tumor size was measured twice a week for 5 weeks from the start date for administration of the test substance. The major- and minor-axis lengths of a tumor were measured using calipers, and the tumor size was calculated according to the following equation. […]
substance,measurement,value
trastuzumab,suppression of the growth of tumor,did not show a tendency to suppress the growth of tumor
